The source of these data is ChEMBL document CHEMBL1158545, “3'-(1,2,3-Triazol-1-yl)-3'-deoxythymidine analogs as substrates for human and Ureaplasma parvum thymidine kinase for structure-activity investigations” (Bioorg Med Chem, 2010).

Usually Km stands for the concentration of substrate that gives half-maximal velocity.

Substrate in this data set: Cc1cn([C@H]2C[C@H](n3cc(-c4ccc(F)cc4)nn3)[C@@H](CO)O2)c(=O)[nH]c1=O
To be noted: Ureaplasma parvum.

B1: Thymidine kinase (Ureaplasma parvum serovar 3 (strain ATCC 700970)), Q9PPP5 (protein)
chain: MAKVNAFSKKIGWIELITGPMFAGKTAELIRRLHRLEYADVKYLVFKPKIDTRSIRNIQSRTGTSLPSVEVESAPEILNYIMSNSFNDETKVIGIDEVQFFDDRICEVANILAENGFVVIISGLDKNFKGEPFGPIAKLFTYADKITKLTAICNECGAEATHSLRKIDGKHADYNDDIVKIGCQEFYSAVCRHHHKVPNRPYLNSNSEEFIKFFKNKKRNKNI
For the protein B1, the Km is 29 µM.
